The results in this text go back to PubChem BioAssay AID602179 (National Center for Advancing Translational Sciences (NCATS), 2012).

Amino acid sequences for entries named in this document (tags omitted).
UniProt O75874, whole entry R132H: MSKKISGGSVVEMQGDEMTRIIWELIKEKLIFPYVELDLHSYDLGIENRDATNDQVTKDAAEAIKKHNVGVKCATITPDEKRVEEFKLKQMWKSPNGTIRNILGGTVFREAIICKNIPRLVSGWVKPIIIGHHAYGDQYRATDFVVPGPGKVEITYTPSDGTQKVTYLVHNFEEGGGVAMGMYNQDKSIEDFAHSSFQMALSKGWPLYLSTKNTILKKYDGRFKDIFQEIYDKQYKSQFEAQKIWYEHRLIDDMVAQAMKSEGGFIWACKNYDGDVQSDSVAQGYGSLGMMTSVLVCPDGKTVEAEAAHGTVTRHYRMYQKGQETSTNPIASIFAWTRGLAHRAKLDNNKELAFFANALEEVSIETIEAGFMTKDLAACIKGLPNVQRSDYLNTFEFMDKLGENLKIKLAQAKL

This is a selection; strong and weak results do not stand in their true shares. Active and inactive are the calls of the source. Calls come from the whole dose curve; as a rule, active = well fitted inhibition curve with a large enough effect; inconclusive = small, poorly fitted or top-dose-only effect; inactive = no such curve, though single readings can be large or run the other way.

The target in this experiment is Isocitrate dehydrogenase [NADP] cytoplasmic (Homo sapiens) (UniProt O75874). The experiment in a line: qHTS for Inhibitors of mutant isocitrate dehydrogenase 1 (IDH1): qHTS. Note: nearly all actives have a fitted effect of over 65% in size. The note with it: IDH1-R132H enzyme, NADPH consumption, diaphorase/resazurin fluorescence; at 76.6 µM (top of the series) unless noted. The text has this: Unbiased genomic sequencing for 22 glioma genomes found recurrent mutation of isocitrate dehydrogenase 1 (IDH1) on chromosome 2q33-a gene encoding the cytosolic isoform of IIDH1associated with the tricarboxylic acid cycle (TCA) that catalyzes the oxidative decarboxylation of isocitrate, yielding alpha-ketoglutarate and CO2 via NADP+ to NADPH conversion. Subsequent studies confirmed the recurrent IDH mutations in up to 70% of secondary gliomas and in 10% of AML cases. […] This in effect defines IDH1 as an oncogene, and provides an extraordinary opportunity to discover chemical probes against mutant IDH1 that may translate into much needed new therapies for glioma and AML patients. […] NIH Chemical Genomics Center [NCGC] NIH Molecular Libraries Probe Centers Network [MLPCN] MLPCN Grant: DA032129 Assay Submitter (PI): Lenny Dang, Agios Pharmaceuticals
IDH1-R132H (0.5 ug/mL) was dispensed into black, solid-bottom 1536-well plates at 3 uL/well in 20 mM Tris-HCl (pH 7.5), 150 mM NaCl, 10 mM MgCl2, 4 mM beta-ME, and 0.05% protease-free BSA. Then, 23 nL of compounds or DMSO were delivered to each well using a pin tool. A pre-read was run on the Viewlux to identify fluorescent compounds (540 nm excitation filter, 598 nm emission filter, bodipy mirror and 2 second exposure). After 30 minutes of incubation with compound, 3 uL of substrate mix were dispensed (0.016 mM NADPH, 2 mM alpha-KG, 20 mM Tris-HCl (pH 7.5), 150 mM NaCl, 10 mM MgCl2, and 0.05% protease-free BSA). Plates were spun for 1 min at 1000xg and incubated at room temperature for 80 min. Then 1.5 uL of each detection reagent component for the coupling system were added (0.12 mg/mL diaphorase and 0.072 mM resazurin, each in 20 mM Tris-HCl (pH 7.5), 150 mM NaCl, 10 mM MgCl2, and 0.05% protease-free BSA ) The protein, substrate and two detection components were maintained at 4 °C throughout the screen. Additionally, the substrate and resazurin reagents were protected from light. The plates were measured on an Envision plate reader for fluorescence signal using a 540 nm excitation filter and 590 nm emission filter with 10 flashes. 1x and 0x (no-enzyme) IDH1-R132H enzyme control were used to normalize %Activity of identified inhibitors; 0x enzyme values corresponded to 100% Activity (full inhibition), while 1x IDH1-R132H enzyme values were used to normalize 0%Activity (no inhibition). Concentration-response curves were fitted to the signals arising from the resulting fluorescence. The concentration-effect curves were then classified based on curve quality (r2), response magnitude and degree of measured activity, and compounds were subsequently categorized based on their curve class. […] Keywords: isocitrate dehydrogenase, IDH1, IDH1-R132H, MLSMR, MLPCN, NIH Roadmap, qHTS, NCGC
(In general: qHTS replaces the single test concentration by a dilution series.)
As for `Cc1cc(C)cc(OP(C)(=O)Nc2cccc(C(F)(F)F)c2)c1` (stereo not drawn), the activity change, negative = inhibition is inactive: 0.12%.

As for `COc1ccccc1OP(C)(=O)Nc1ccc(C)c(C)c1` (stereo not drawn), the activity change, negative = inhibition is inactive: 0.929%.

`COc1ccc(OP(C)(=O)Nc2ccccc2Br)cc1` (stereo not drawn): the activity change, negative = inhibition was inactive: 0.972%.

On to `COc1ccccc1OP(C)(=O)Nc1ccc(C)cc1` (stereo not drawn), for which the activity change, negative = inhibition was inactive: 1.05%.

Regarding `Cc1ccc(NP(C)(=O)Oc2ccccc2)c(C)c1` (stereo not drawn), the activity change, negative = inhibition was inactive: 0.237%.

In the case of `CCOC(=O)c1ccc(NP(C)(=O)Oc2ccccc2)cc1` (stereo not drawn), the activity change, negative = inhibition is inactive: -3.76%.

In the case of `Cc1cc(C)cc(OP(C)(N)=O)c1` (stereo not drawn), the activity change, negative = inhibition was inactive: 6.03%.

`COc1ccccc1OP(C)(=O)Nc1cc(Cl)ccc1C` (stereo not drawn): the activity change, negative = inhibition is inactive: -7.16%.

Take `COc1ccc(OP(C)(=O)Nc2cccc(F)c2)cc1` (stereo not drawn): the activity change, negative = inhibition was inactive: 5.71%.

On to `O=[N+]([O-])c1cc([N+](=O)[O-])c(Nc2cccnc2)c([N+](=O)[O-])c1`, for which the activity change, negative = inhibition is inactive: 4.29% [at 38.3 µM].

Take `O=[N+]([O-])c1ccc2c(c1)C=Nc1ccccc1O2`: the activity change, negative = inhibition is inactive: 0%.

As for `CC(C)(C)c1ccc(OP(C)(=O)Nc2ccc(SC(F)(F)F)cc2)cc1` (stereo not drawn), the activity change, negative = inhibition is inactive: 2.98%.

As to `Cc1cccc(C)c1OP(C)(N)=O` (stereo not drawn), the activity change, negative = inhibition was inactive: 1.18%.

Consider `CCN(CC)CCCOC(=O)C(O)(c1ccccc1)c1ccccc1`, for which the activity change, negative = inhibition was inactive: 2.04%.

Regarding `CCOC(=O)c1ccc(NP(C)(=O)Oc2ccc(OC)cc2)cc1` (stereo not drawn), the activity change, negative = inhibition was inactive: 0.499%.

Take `O=[N+]([O-])c1cc([N+](=O)[O-])c(O)c([N+](=O)[O-])c1.c1ccc(Oc2ccncc2)cc1`: the activity change, negative = inhibition was inactive: -2.81%.

`CCOP(C)(=S)SCC(=O)NC(C)C(=O)O` (stereo not drawn): the activity change, negative = inhibition is inactive: 13.1%.

Take `CP(=O)(Nc1ccccn1)Oc1ccc(Cl)cc1` (stereo not drawn): the activity change, negative = inhibition is inactive: -6.18%.

As for `Cc1cccc(C)c1OP(C)(=O)Nc1ccc(SC(F)(F)F)cc1` (stereo not drawn), the activity change, negative = inhibition is inactive: -1.58%.

`CP(=O)(Nc1ccc(SC(F)(F)F)cc1)Oc1ccc(Cl)cc1` (stereo not drawn): the activity change, negative = inhibition was inactive: -7.4%.

As to `CP(=O)(Oc1ccccc1)OC(c1ccccc1)C(F)(F)F` (stereo not drawn), the activity change, negative = inhibition is inactive: 0.929%.

`CP(=O)(NC(=O)Nc1ccccc1)Oc1ccccc1` (stereo not drawn): the activity change, negative = inhibition is inactive: -6.63%.

Take `CCc1ccc(OP(C)(=O)N2CCN(c3ccc([N+](=O)[O-])cc3)CC2)cc1` (stereo not drawn): the activity change, negative = inhibition was inactive: 1.57%.

Regarding `Cc1cc(C)cc(OP(C)(=O)Nc2ccc(SC(F)(F)F)cc2)c1` (stereo not drawn), the activity change, negative = inhibition was inactive: 5.42%.

`CP(=S)(Nn1cnnc1)Oc1ccccc1` (stereo not drawn): the activity change, negative = inhibition was inactive: -1.6%.

For the molecule `CP(=O)(Nc1ccccc1Br)Oc1ccccc1` (stereo not drawn), the activity change, negative = inhibition was inactive: 3.69%.

For `COc1ccccc1OP(C)(=O)Nc1ccccc1` (stereo not drawn), the activity change, negative = inhibition is inactive: 13.1%.

Take `COc1ccccc1OP(C)(=O)Nc1c(C)cccc1C` (stereo not drawn): the activity change, negative = inhibition was inactive: 6.03%.

On to `CN1CCCCC1COC(=O)C1(O)c2ccccc2CCc2ccccc21` (stereo not drawn), for which the activity change, negative = inhibition was inactive: -0.706%.

`CCCOc1ccc(NP(C)(=O)Oc2ccc(Cl)cc2)cc1` (stereo not drawn): the activity change, negative = inhibition was inactive: -9.17%.

In the case of `CP(=O)(Nc1ccc(SC(F)(F)F)cc1)Oc1ccccc1` (stereo not drawn), the activity change, negative = inhibition is inactive: -3.84%.

On to `CC1=C2N=C(C=C3N=C(C(C)=C4[N-][C@@](C)([C@@H]5N=C1[C@](C)(CCC(=O)NC[C@@H](C)OP(=O)([O-])O[C@H]1[C@@H](O)[C@@H](n6cnc7cc(C)c(C)cc76)O[C@@H]1CO)[C@H]5CC(N)=O)[C@@](C)(CC(N)=O)[C@@H]4CCC(N)=O)[C@@](C)(CC(N)=O)[C@@H]3CCC(N)=O)C(C)(C)[C@@H]2CCC(N)=O.[C-]#N.[Co+3]`, for which the activity change, negative = inhibition is inactive: 13.9%.

Take `O=[N+]([O-])c1cc([N+](=O)[O-])c(Nc2nnnn2CCO)c([N+](=O)[O-])c1`: the activity change, negative = inhibition is inactive: 14.9%.

Take `O=[N+]([O-])c1cc([N+](=O)[O-])c(-c2cnn(-c3ccccc3)c2)c([N+](=O)[O-])c1`: the activity change, negative = inhibition was inactive: 4.59%.

`Cc1nc2ccc3ccccc3c2s1.O=[N+]([O-])c1cc([N+](=O)[O-])c(O)c([N+](=O)[O-])c1`: the activity change, negative = inhibition is inactive: 2.29%.

As for `O=[N+]([O-])c1cc([N+](=O)[O-])c(-n2nnc3ccccc32)c([N+](=O)[O-])c1`, the activity change, negative = inhibition is inactive: -6.25%.

For `Cc1ccc(C)c(NP(C)(=O)Oc2ccccc2)c1` (stereo not drawn), the activity change, negative = inhibition was inactive: 6.46%.

On to `Cc1cc(C)cc(OP(C)(=O)Nc2ccccn2)c1` (stereo not drawn), for which the activity change, negative = inhibition is inactive: 0.1%.

For `CP(=O)(Nc1cccc(Br)c1)Oc1ccccc1` (stereo not drawn), the activity change, negative = inhibition is inactive: 4.44%.

As for `COc1ccccc1OP(C)(=O)Nc1cccc(Br)c1` (stereo not drawn), the activity change, negative = inhibition was inactive: 5.77%.

As to `CCOC(=O)c1ccc(NP(C)(=O)Oc2cc(C)cc(C)c2)cc1` (stereo not drawn), the activity change, negative = inhibition is inactive: 10.5%.

On to `Cc1cc(C)cc(OP(C)(=O)Nc2ccc(C)cc2C)c1` (stereo not drawn), for which the activity change, negative = inhibition was inactive: 1.26%.

As for `CC1=NCCc2c1[nH]c1ccccc21.O=[N+]([O-])c1cc([N+](=O)[O-])c(O)c([N+](=O)[O-])c1`, the activity change, negative = inhibition was inactive: -0.506%.
